Results taken from article PMC7471466 (Acta Pharmacologica Sinica, 2020).

Columns and labels:
AOX1 mRNA [1] = details: human hepatocytes, 0–100 μM NIM for 24 h
[2] = system: sandwich-cultured rat hepatocytes; details: after NIM treatment
AOX1 mRNA [3] = details: rat livers, 20, 50, 100 mg·kg−1·d−1 NIM for 5 days
AOX1 = details: human hepatocytes, 0–100 μM NIM for 24 h, concentration-dependent

For `CS(=O)(=O)Nc1ccc([N+](=O)[O-])cc1Oc1ccccc1` [NIM, nimesulide], the “increase in AOX1 mRNA levels” value (AOX1 mRNA [1]) was under 1.5 fold, the “biliary excretion index (BEI) of MTX” value [2] was “not changed” and the “AOX1 mRNA level” value (AOX1 mRNA [3]) was “no significant alteration”. For the same compound, the AOX1 protein level (AOX1) was “increased”.
